# Measured values reported in PubChem BioAssay AID449750 (Broad Institute, 2010).
# Experiment: non-covalent RecA intein splicing inhibitors, dose response, biochemical, cell-free, fluorescence, secondary screen (AID 449750)
row,Compound,AC50 [µM]
1,Clc1ccc(COC(Cn2ccnc2)c2ccc(Cl)cc2Cl)c(Cl)c1 (configuration not stated),6.55
2,Clc1ccc(COC(Cn2ccnc2)c2ccc(Cl)cc2Cl)cc1 (configuration not stated),8.79
